From PubChem BioAssay AID651660 (Broad Institute, 2012)
This is a selection; strong and weak results do not stand in their true shares. Calls of active or inactive are those of the source.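 The calls were made as follows: active = every replicate shows at least 50% inhibition; inconclusive = mean inhibition at least 50% but some replicate below; inactive = the rest.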

Sequences of proteins named here, by UniProt entry; tags and fusion partners are left off. A change or cut given only in a name is not applied to a line headed by its entry.
UniProt P43351: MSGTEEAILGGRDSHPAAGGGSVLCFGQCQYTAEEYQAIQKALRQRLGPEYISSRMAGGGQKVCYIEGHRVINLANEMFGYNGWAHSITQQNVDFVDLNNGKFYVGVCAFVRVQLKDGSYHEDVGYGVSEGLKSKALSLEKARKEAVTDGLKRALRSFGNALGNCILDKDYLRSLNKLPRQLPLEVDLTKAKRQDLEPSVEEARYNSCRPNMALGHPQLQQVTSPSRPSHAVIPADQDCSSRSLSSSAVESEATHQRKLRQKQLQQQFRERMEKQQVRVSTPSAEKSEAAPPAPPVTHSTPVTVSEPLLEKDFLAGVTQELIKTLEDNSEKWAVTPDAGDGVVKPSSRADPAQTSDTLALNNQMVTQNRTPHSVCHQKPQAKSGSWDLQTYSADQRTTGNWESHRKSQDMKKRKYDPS

Target: DNA repair protein RAD52 homolog (Homo sapiens) (UniProt P43351)
Experiment: RAD52 ssDNA annealing inhibitors, primary screen, biochemical, FRET, single point (AID 651660);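 also: 0% = median of neutral control wells and 100% = median of positive control wells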
Conditions: Recombinant RAD52 ssDNA annealing, FRET fluorescence, 30 min; at 18.7 µM; active compounds read high

SMILES | inhibition
CN(C(=O)Cc1ccc(Cl)c(Cl)c1)[C@@H]1CCCC[C@H]1N1CCCC1 | inactive: -3.97%
